Assay [1] deals with Muscarinic acetylcholine receptor M1 (Homo sapiens, UniProt P11229). Put plainly: Affinity for Muscarinic acetylcholine receptor M1 expressed in CHO cells by [3H]NMS displacement.
The target of assay [2] is Muscarinic acetylcholine receptor M4 (Homo sapiens, UniProt P08173). Put plainly: Affinity for Muscarinic acetylcholine receptor M4 expressed in CHO cells by [3H]NMS displacement.
The target in assay [3] is Muscarinic acetylcholine receptor M5 (Homo sapiens, UniProt P08912). The assay is described as follows: Affinity for Muscarinic acetylcholine receptor M5 expressed in CHO cells by [3H]NMS displacement.
Assay [4] concerns the target Muscarinic acetylcholine receptor M3 (Homo sapiens, UniProt P20309). Put plainly: Affinity for Muscarinic acetylcholine receptor M3 expressed in CHO cells by [3H]-NMS displacement.
For assay [5], the target named is Muscarinic acetylcholine receptor M2 (Homo sapiens, UniProt P08172). Put plainly: Affinity for Muscarinic acetylcholine receptor M2 expressed in CHO cells by [3H]NMS displacement.

The structures appear in SMILES notation.

Take `O=C(OC1CN2CCC1CC2)C1=C/C(=C\c2ccncc2)c2ccccc21` (stereo not given): the Log Ki is -5.9 in assay [1]; -5.74 in assay [2]; -5.98 in assay [3]; -5.68 in assay [4]; -6.48 in assay [5].
On the same counts, the results for `O=C(OC1CN2CCC1CC2)C1=C/C(=C\c2ccccn2)c2ccccc21` (stereo not given) are -5.83, -5.77, -6.01, -5.76 and -6.49.
Regarding `O=C(OC1CN2CCC1CC2)C1=C/C(=C\c2cccnc2)c2ccccc21` (stereo not given), the Log Ki is -6.05 in assay [1]; -5.91 in assay [2]; -5.91 in assay [3]; -5.77 in assay [4]; -6.38 in assay [5].

The values are drawn from ChEMBL document CHEMBL1134266, “Design and pharmacology of quinuclidine derivatives as M2-selective muscarinic receptor ligands” (Bioorg Med Chem Lett, 2001).
